{
  "source": "ChEMBL document CHEMBL1138043",
  "about": "“Exploration of orally available calpain inhibitors 2: peptidyl hemiacetal derivatives” (J Med Chem, 2006)",
  "molecular_target": "T1, Calpain-2 catalytic subunit (Sus scrofa, UniProt P43367)",
  "T1 sequence (P43367 whole entry)": "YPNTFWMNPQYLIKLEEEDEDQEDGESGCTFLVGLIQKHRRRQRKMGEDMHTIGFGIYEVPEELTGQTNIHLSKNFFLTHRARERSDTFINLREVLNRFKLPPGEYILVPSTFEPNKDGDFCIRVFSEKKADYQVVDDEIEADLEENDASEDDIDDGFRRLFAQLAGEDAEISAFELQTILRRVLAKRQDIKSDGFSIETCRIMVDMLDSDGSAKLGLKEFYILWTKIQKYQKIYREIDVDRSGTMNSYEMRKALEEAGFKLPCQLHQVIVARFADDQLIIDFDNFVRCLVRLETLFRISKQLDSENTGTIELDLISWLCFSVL",
  "test": "Inhibition of porcein kidney m calpain",
  "note": "pIC50: −log10 of the molar value.",
  "data": [
    {"smiles": "CCCCNC(=O)C(=O)[C@H](CC(C)C)NC(=O)[C@@H](NS(=O)(=O)c1ccc(F)cc1)C(C)C", "values": [
      {"measurement": "pIC50", "value": 7.68}
    ]}
  ]
}
